Test results: patent US6756233B1, “Method for measuring free ligands in biological fluids, and assay kits for measuring same” (priority 1985, dated 2004)
Where two headings read alike, the source gives them in different places.

Protein sequences, listed by entry. Tags and fused reporters are not part of them. Residues count along the entry.
UniProt P02768, 25-609: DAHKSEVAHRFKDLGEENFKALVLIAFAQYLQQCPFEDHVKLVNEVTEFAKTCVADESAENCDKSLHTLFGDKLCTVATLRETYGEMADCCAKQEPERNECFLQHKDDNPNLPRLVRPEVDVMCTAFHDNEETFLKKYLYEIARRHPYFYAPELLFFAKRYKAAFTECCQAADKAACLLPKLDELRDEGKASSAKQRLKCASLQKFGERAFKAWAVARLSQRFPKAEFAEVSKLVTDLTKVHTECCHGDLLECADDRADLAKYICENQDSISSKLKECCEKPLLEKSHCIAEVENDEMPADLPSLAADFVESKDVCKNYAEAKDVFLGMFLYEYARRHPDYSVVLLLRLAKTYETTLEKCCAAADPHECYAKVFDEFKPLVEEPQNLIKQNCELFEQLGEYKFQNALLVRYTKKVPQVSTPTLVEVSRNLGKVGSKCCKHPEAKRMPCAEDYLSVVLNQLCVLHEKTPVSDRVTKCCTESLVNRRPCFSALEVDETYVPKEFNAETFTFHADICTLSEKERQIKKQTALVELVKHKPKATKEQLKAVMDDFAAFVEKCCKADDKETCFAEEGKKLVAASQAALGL

What was measured:
[1] = target: T1, charcoal absorbed human serum albumin (Homo sapiens, UniProt P02768)
[2] = target: T1, charcoal absorbed human serum albumin; remark: listed apart in the source

Compound: O=[N+]([O-])c1ccc(O)c([N+](=O)[O-])c1 [2,4-dinitrophenol]
- % B/T, Free T3 ([1]; 2,4-dinitrophenol 10 μg/ml): 1.0%
- % B/T, Free T3 ([1]; 2,4-dinitrophenol 150 μg/ml): 4.3%
- % B/T, Free T3 ([1]; 2,4-dinitrophenol 400 μg/ml): 10.0%
- % B/T, Free T3 ([1]; 2,4-dinitrophenol 800 μg/ml): 16.3%
- % B/T, Free T3 ([1]; 2,4-dinitrophenol 3000 μg/ml): 28.2%
- % B/T, Free T3 ([1]; 2,4-dinitrophenol 3500 μg/ml): 27.6%
- % B/T, Free T3 ([1]; 2,4-dinitrophenol 4000 μg/ml): 27.3%
- % B/T, Free T4 ([2]; 2,4-dinitrophenol 10 μg/ml): 2.4%
- % B/T, Free T4 ([2]; 2,4-dinitrophenol 50 μg/ml): 4.5%
- % B/T, Free T4 ([2]; 2,4-dinitrophenol 100 μg/ml): 8.0%
- % B/T, Free T4 ([2]; 2,4-dinitrophenol 150 μg/ml): 11.0%
- % B/T, Free T4 ([2]; 2,4-dinitrophenol 200 μg/ml): 13.3%
- % B/T, Free T4 ([2]; 2,4-dinitrophenol 400 μg/ml): 22.9%
- % B/T, Free T4 ([2]; 2,4-dinitrophenol 800 μg/ml): 31.8%
- % B/T, Free T4 ([2]; 2,4-dinitrophenol 1000 μg/ml): 34.1%
- % B/T, Free T4 ([2]; 2,4-dinitrophenol 1500 μg/ml): 41.4%
- % B/T, Free T4 ([2]; 2,4-dinitrophenol 2000 μg/ml): 43.2%
